Biological target: Cholinesterase (Homo sapiens, UniProt P06276)
Test: Inhibition of human BuChE at 100 uM using butyrylthiocholine chloride as substrate by Ellman's method

Protein sequences, listed by entry. Tags and fused reporters are not part of them.
UniProt P06276, whole entry: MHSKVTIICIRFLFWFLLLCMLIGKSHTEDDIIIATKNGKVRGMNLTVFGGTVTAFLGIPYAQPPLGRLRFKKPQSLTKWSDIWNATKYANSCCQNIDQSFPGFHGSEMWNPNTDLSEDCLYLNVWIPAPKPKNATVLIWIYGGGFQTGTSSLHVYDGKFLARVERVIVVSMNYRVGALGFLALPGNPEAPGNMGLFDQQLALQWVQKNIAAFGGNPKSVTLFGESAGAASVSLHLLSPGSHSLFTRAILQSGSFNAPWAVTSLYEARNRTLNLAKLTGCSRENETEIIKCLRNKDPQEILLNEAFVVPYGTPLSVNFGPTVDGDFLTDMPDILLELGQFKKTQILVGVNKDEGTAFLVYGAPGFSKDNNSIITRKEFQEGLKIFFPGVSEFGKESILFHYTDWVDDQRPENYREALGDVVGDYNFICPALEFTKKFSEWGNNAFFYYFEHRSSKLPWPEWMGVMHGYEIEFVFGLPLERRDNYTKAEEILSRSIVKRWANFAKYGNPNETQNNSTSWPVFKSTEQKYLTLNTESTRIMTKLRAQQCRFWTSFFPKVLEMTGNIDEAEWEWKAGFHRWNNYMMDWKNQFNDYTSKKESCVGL

With `CNC(=O)Oc1ccc2c(c1)[C@]1(C)CCN(C)[C@@H]1N2C` the inhibition was 99.9%.
